From ChEMBL document CHEMBL3045492, “Regioselective synthesis of novel 3-alkoxy (phenyl) thiophosphorylamido-2-(per-O-acetylglycosyl-1'-imino)thiazolidine-4-one derivatives from O-alkyl N4-glycosyl(thiosemicarbazido)phosphonothioates” (2009)

Columns and labels:
[1] = tested on: Amaranthus retroflexus; experiment: Herbicidal activity against Amaranthus retroflexus assessed as growth inhibition at 1.5 kg/ha relative to control
[2] = tested on: Brassica rapa subsp. oleifera; experiment: Herbicidal activity against Brassica rapa subsp. oleifera assessed as growth inhibition at 1.5 kg/ha relative to control
[3] = tested on: Digitaria sanguinalis; experiment: Herbicidal activity against Digitaria sanguinalis (hairy crabgrass) assessed as growth inhibition at 1.5 kg/ha relative to control
[4] = tested on: Echinochloa crus-galli; experiment: Herbicidal activity against Echinochloa crus-galli (barnyard grass) assessed as growth inhibition at 1.5 kg/ha relative to control

Measured: growth inhibition (GI)

COP(=S)(NN1C(=O)CS/C1=N/[C@@H]1OC[C@@H](OC(C)=O)[C@H](OC(C)=O)[C@H]1OC(C)=O)c1ccccc1 (stereo partly drawn)
active: all assays above

COP(=S)(NN1C(=O)CS/C1=N\[C@@H]1O[C@H](COC(C)=O)[C@H](OC(C)=O)[C@H](OC(C)=O)[C@H]1OC(C)=O)c1ccccc1 (stereo partly drawn)
active: all assays above

CCCOP(=S)(NN1C(=O)CS/C1=N/[C@@H]1O[C@H](COC(C)=O)[C@@H](OC(C)=O)[C@H](OC(C)=O)[C@H]1OC(C)=O)c1ccccc1 (stereo partly drawn)
active: all assays above

COP(=S)(NN1C(=O)CS/C1=N/[C@@H]1OC[C@@H](OC(C)=O)[C@H](OC(C)=O)[C@H]1OC(C)=O)OC
active: all assays above

CCOP(=S)(NN1C(=O)CS/C1=N/[C@@H]1O[C@H](COC(C)=O)[C@@H](O[C@@H]2O[C@H](CC(C)=O)[C@H](OC(C)=O)[C@H](OC(C)=O)[C@H]2OC(C)=O)[C@H](OC(C)=O)[C@H]1OC(C)=O)OCC
active: all assays above

CCOP(=S)(NN1C(=O)CS/C1=N/[C@@H]1OC[C@@H](OC(C)=O)[C@H](OC(C)=O)[C@H]1OC(C)=O)c1ccccc1 (stereo partly drawn)
active: all assays above

CCOP(=S)(NN1C(=O)CS/C1=N/[C@@H]1O[C@H](COC(C)=O)[C@@H](OC(C)=O)[C@H](OC(C)=O)[C@H]1OC(C)=O)OCC
active: all assays above

CCOP(=S)(NN1C(=O)CS/C1=N/[C@@H]1OC[C@@H](OC(C)=O)[C@H](OC(C)=O)[C@H]1OC(C)=O)OCC
active: all assays above

CCOP(=S)(NN1C(=O)CS/C1=N/[C@@H]1O[C@H](COC(C)=O)[C@@H](O[C@H]2O[C@H](CC(C)=O)[C@@H](OC(C)=O)[C@H](OC(C)=O)[C@H]2OC(C)=O)[C@H](OC(C)=O)[C@H]1OC(C)=O)OCC
active: all assays above

COP(=S)(NN1C(=O)CS/C1=N/[C@@H]1O[C@H](COC(C)=O)[C@@H](OC(C)=O)[C@H](OC(C)=O)[C@H]1OC(C)=O)c1ccccc1 (stereo partly drawn)
active: [1] | [3] | [4]

CCOP(=S)(NN1C(=O)CS/C1=N\[C@@H]1O[C@H](COC(C)=O)[C@H](OC(C)=O)[C@H](OC(C)=O)[C@H]1OC(C)=O)OCC
active: all assays above

Calls of active or inactive are those of the source.
